The record followed here is patent publication US20120202856A1, “SUBSTITUTED BENZIMDAZOLE DERIVATIVES USEFUL AS TRPM8 RECEPTOR MODULATORS” (priority 2011, published 2012).

Sequences of proteins named here, by UniProt entry; tags and fusion partners are left off. Residues count along the entry.
UniProt Q1A7N1, 1-1104: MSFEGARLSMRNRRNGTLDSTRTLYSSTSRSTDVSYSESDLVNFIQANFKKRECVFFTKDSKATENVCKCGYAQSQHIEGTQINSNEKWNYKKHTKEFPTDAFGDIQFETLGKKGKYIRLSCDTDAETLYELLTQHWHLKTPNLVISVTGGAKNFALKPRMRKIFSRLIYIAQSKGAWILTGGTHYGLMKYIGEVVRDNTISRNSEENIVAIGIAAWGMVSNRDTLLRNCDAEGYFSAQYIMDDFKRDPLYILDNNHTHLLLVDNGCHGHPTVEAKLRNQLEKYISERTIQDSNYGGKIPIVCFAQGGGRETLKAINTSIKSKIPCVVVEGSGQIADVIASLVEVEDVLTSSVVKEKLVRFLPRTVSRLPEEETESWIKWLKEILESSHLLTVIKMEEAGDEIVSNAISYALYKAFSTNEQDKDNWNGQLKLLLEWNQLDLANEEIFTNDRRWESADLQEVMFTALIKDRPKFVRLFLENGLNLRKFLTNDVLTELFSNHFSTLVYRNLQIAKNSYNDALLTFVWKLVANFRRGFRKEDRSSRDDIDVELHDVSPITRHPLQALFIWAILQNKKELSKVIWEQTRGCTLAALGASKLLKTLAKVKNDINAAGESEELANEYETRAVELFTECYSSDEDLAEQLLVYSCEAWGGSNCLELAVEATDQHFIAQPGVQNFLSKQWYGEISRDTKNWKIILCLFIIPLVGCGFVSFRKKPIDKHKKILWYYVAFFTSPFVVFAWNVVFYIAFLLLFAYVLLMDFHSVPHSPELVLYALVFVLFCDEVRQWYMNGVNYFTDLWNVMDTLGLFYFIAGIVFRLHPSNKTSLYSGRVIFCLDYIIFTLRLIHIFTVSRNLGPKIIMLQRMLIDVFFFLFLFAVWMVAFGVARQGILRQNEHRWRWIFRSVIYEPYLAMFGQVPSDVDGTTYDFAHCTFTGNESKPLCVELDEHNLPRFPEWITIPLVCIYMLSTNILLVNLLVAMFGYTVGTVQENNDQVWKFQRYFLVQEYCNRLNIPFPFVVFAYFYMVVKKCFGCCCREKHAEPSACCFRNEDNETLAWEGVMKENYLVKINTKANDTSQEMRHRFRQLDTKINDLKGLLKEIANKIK

Each structure is given as a SMILES string. Where a name gives a salt, the structure may show the parent alone.

For orientation: IC50 means the concentration at which inhibition is half-maximal.

This assay concerns the target T1, canine TRPM8 (Canis lupus familiaris, UniProt Q1A7N1).
T1 construct: expressed in transfected cells
In words: In Vitro Canine TRPM8 Functional Assay (intracellular Ca2+ fluorescence, icilin activation, HEK293 cells). It is filed as cell-based. Conditions: for inhibition at 0.2 µM: HEK293, read-out: % Inh (%) @0.2 μM, in vitro TRP M8 Activity, 0.2 μM test compound; for IC50: HEK293 cells expressing canine TRPM8, icilin activation, individually measured values (batches/salt forms), read-out: IC50 (nM), in vitro TRP M8 Activity. Here is the method:
The changes in fluorescent signal were monitored by a fluorescence plate reader, either a FLIPR™ (Molecular Devices) or FDSS (Hamamatsu). […] Cells were maintained in 5% CO2 at 37° C. At 24 hr prior to assay, cells were seeded in black wall, clear-base poly-D-lysine coated 384-well plates (BD Biosciences, NJ, USA) at a density of 5,000 cells per well in culture medium and grown overnight in 5% CO2 at 37° C. On assay day, growth media was removed, and cells were loaded with Calcium 3 Dye (Molecular Devices) for 35 min at 37° C., under 5% CO2 and then incubated for 25 min at room temperature and atmosphere. Subsequently, cells were tested for agonist-induced increases in intracellular Ca^2+ levels using FLIPR™ or FDSS. […] Maximal fluorescence intensity (FI) achieved upon addition of icilin was exported from the FLIPR™ or FDSS software and further analyzed using GraphPad Prism 3.02 (Graph Pad Software Inc., CA, U.S.A.). Basal FI was subtracted prior to normalizing data to percent of maximal response. Curves were generated using the average of quadruplicate wells for each data point using nonlinear regression of either sigmoidal dose response or sigmoidal dose response (variable slope). Finally, IC50 values were calculated with the best-fit curve determined by GraphPad Prism

Consider `Cn1nc(C(C)(C)C)nc1-c1nc2cc(-c3ccccc3C(F)(F)F)cc(C(F)(F)F)c2[nH]1` [Compound 192, 2-(5-tert-Butyl-2-methyl-2H-[1,2,4]triazol-3-yl)-7-trifluoromethyl-5-(2-trifluoromethyl-phenyl)-1H-benzimidazole sodium salt], for which the inhibition at 0.2 µM (individually measured values) came out at 86%.

As for `Cn1nc(C(C)(C)C)cc1-c1nc2cc(-c3c(F)cccc3C(F)(F)F)ccc2[nH]1` [Compound 61, 2-(5-tert-Butyl-2-methyl-2H-pyrazol-3-yl)-5-(2-fluoro-6-trifluoromethylphenyl)-1H-benzimidazole sodium salt], the half-maximal inhibitory concentration (IC50) is 13 nM.

On to `Cn1nc(C(C)(C)C)c(C#N)c1-c1nc2cc(-c3c(F)cccc3F)cc(C(F)(F)F)c2[n-]1.[Na+]` [Compound 151, 3-tert-Butyl-5-[5-(2,6-difluoro-phenyl)-7-trifluoromethyl-1H-benzimidazol-2-yl]-1-methyl-1H-pyrazole-4-carbonitrile sodium salt], for which, under “0.2 μM test compound, individually measured values”, the “% Inh (%) @0.2 μM, in vitro TRP M8 Activity” value was 100, 100%. Besides, the inhibition at 0.2 µM (individually measured values) turned out to be 100%.

For the molecule `CC(C)(C)c1nnc(-c2nc3cc(-c4ccccc4C(F)(F)F)cc(C(F)(F)F)c3[nH]2)o1` [Compound 190, 2-(5-tert-Butyl-[1,3,4]oxadiazol-2-yl)-7-trifluoromethyl-5-(2-trifluoromethyl-phenyl)-1H-benzimidazole sodium salt], where the note is “individually measured values”, the inhibition at 0.2 µM was 101%.

As to `COc1ccccc1-c1ccc2[nH]c(-c3cc(C(C)(C)C)nn3C)nc2c1` [Compound 12, 2-(5-tert-Butyl-2-methyl-2H-pyrazol-3-yl)-5-(2-methoxyphenyl)-1H-benzimidazole sodium salt], the IC50 came out at 13 nM.
